Measured values reported in ChEMBL document CHEMBL1143255, “Standard protecting groups create potent and selective kappa opioids: salvinorin B alkoxymethyl ethers” (Bioorg Med Chem, 2008).

Amino acid sequences for entries named in this document (tags omitted). A change or cut given only in a name is not applied to a line headed by its entry.
UniProt P41145: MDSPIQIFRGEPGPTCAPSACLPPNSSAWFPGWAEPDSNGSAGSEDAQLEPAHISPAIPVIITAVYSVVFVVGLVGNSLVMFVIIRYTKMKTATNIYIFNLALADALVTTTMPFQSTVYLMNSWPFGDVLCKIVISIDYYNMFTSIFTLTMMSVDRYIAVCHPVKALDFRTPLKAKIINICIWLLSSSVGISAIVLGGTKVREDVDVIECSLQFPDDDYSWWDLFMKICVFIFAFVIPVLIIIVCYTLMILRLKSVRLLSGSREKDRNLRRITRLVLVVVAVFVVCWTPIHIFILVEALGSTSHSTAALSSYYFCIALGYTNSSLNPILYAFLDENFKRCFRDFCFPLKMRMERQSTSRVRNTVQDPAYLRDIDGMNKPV

Legend:
[1] = target: T1, Kappa-type opioid receptor (Homo sapiens, UniProt P41145); experiment: Agonist activity at human kappa opioid receptor expressed in CHO cells assessed as stimulation of [35S]GTPgammaS binding; assay type: functional, cell-based
Procedure, shortened: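 Potency and efficacy from [35S]GTPγS binding to membranes of CHO cells stably expressing human κ receptor; testing blinded to compound identity and molecular mass.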

[2] = target: T1, Kappa-type opioid receptor; experiment: Displacement of [3H]diprenorphine from human kappa opioid receptor expressed in CHO cells; assay type: cell-based
Procedure, shortened: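 Competitive inhibition of [3H]diprenorphine binding to membranes from CHO cells stably transfected with human κ, rat μ or mouse δ receptor; testing blinded to compound identity and molecular mass; mean of three independent experiments in duplicate.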

SMILES	EC50 [1] [nM]	Ki [2] [nM]
CCOC(C)O[C@H]1C[C@@H](C(=O)OC)[C@]2(C)CC[C@H]3C(=O)O[C@H](c4ccoc4)C[C@]3(C)[C@H]2C1=O (some centres undefined) [listing 1 of 2 here]	10	11
CCOC(C)O[C@H]1C[C@@H](C(=O)OC)[C@]2(C)CC[C@H]3C(=O)O[C@H](c4ccoc4)C[C@]3(C)[C@H]2C1=O (some centres undefined) [listing 2 of 2 here]	5.7	6.6
